Reference: ChEMBL document CHEMBL3244044, “Synthesis and antitumor activity of halogen-substituted 4-(3,3-dimethyl-1-triazeno)quinolines” (J Med Chem, 1978)

Tests used:
Conditions in all cases: route intraperitoneal
B16 [1] = assay: Antitumor activity against mouse B16 cells allografted mouse assessed as host survival at 216 mg/kg, ip qd for 9 days relative to control
B16 [2] = assay: Antitumor activity against mouse B16 cells allografted mouse assessed as host survival at 130 mg/kg, ip qd for 9 days relative to control
B16 [3] = assay: Antitumor activity against mouse B16 cells allografted mouse assessed as host survival at 77.8 mg/kg, ip qd for 9 days relative to control

## NC(=O)c1nc[nH]c1/N=N/N(CCCl)CCCl
B16 [1]
  Survival: 15.3 days
  T/C: 73%
B16 [2]
  Survival: 32.8 days
  T/C: 156%
B16 [3]
  Survival: 25 days
  T/C: 119%
